Measured values: ChEMBL document CHEMBL1147692, “Orally active thrombin inhibitors. Part 1: optimization of the P1-moiety” (Bioorg Med Chem Lett, 2006)

Target: Prothrombin (Homo sapiens, UniProt P00734)
Test: Inhibition of thrombin

Molecule `N=C(N)c1csc(CNC(=O)[C@@H]2C=CCN2C(=O)[C@@H](CC2CCCCC2)NCC(=O)O)n1` has an IC50 of 1.39 nM.
